## Measured properties of organic chemicals

Source: data files of OPERA 2.9 (Mansouri et al.), github.com/kmansouri/OPERA.

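OPERA's authors assembled the values from existing databases and did not measure them anew. One number stands for a compound and property, with no spread given. How each value was measured is not recorded, so precision varies. The measured form (salt, isomer or mixture) is not always the one drawn. Some entries may be limits or estimates that an upstream database listed as plain numbers.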

Melting points are in °C. Boiling points are in °C, nominally at 760 mmHg. logP is the log10 of the octanol-water partition coefficient; higher is more lipophilic. Water solubility is log10 of mol/L, nominally at 25 °C; higher is more soluble. Vapor pressures (log10 mmHg) refer to near room temperature, 15 to 30 °C; higher is more volatile. Henry's law constant (air-water partitioning) is log10 of atm·m3/mol, nominally at 25 °C. fu is the fraction unbound in human plasma, from 0 to 1. Clint is human hepatic intrinsic clearance in µL/min per million cells; 0 means that no clearance was seen.

Fc1cc(Br)cc(F)c1F [1-Bromo-3,4,5-trifluorobenzene] has logP 3.2 and log S -3.057 (log10 mol/L) and log vapor pressure 0.765 (log10 mmHg). CC(C)(C)OC(=O)C(C)(C)ON=C(C(=O)O)c1csc(NC(c2ccccc2)(c2ccccc2)c2ccccc2)n1 has MP 165 °C and log S -8.221 (log10 mol/L). The entry for CCCC1CCC(C2CCC(c3ccc(OCC)c(F)c3F)CC2)CC1 (configuration not stated) lists MP 80.2 °C and log S -5.607 (log10 mol/L) and log vapor pressure -4.696 (log10 mmHg). For CN(C)CCCNCCCN [Dimethyldipropylenetriamine] the data give logP -0.56 and log vapor pressure -1.648 (log10 mmHg). Listed for C=C(C)C(=O)OCC(CCC)CCCCC (configuration not stated) [2-Propylheptyl 2-methylprop-2-enoate]: MP -117.5 °C and boiling point 258.2 °C and log S -5.674 (log10 mol/L) and log vapor pressure -2.023 (log10 mmHg).

Clc1ccc(Oc2ccc(Cl)c(Cl)c2Cl)c(Cl)c1Cl [2,2',3,3',4,4'-Hexachlorodiphenylether] is reported with MP 138 °C and log S -8.14 (log10 mol/L). Cc1cn2[nH]c(=N)nc2nc1O is reported with MP 321.3 °C and logP -0.785 and log S -2.176 (log10 mol/L) and log vapor pressure -7.426 (log10 mmHg). CSc1nc(NC2CC2)nc(NC(C)(C)C)n1 [Cybutryne] is reported with logP 2.8 and log vapor pressure -6.18 (log10 mmHg). CNC(=O)c1cc(Oc2ccc(N)c(F)c2)ccn1 [4-(4-Amino-3-fluorophenoxy)-N-methylpyridine-2-carboxamide] is reported with MP 138 °C and logP 1.3 and log S -3.138 (log10 mol/L) and log vapor pressure -5.59 (log10 mmHg). The entry for CC/C=C\CCOC(=O)c1ccccc1 [(3Z)-Hex-3-en-1-yl benzoate] lists log S -3.705 (log10 mol/L) and log vapor pressure -2.472 (log10 mmHg).

The entry for COC(=O)c1cc(F)ccc1[N+](=O)[O-] [Methyl 5-fluoro-2-nitrobenzoate] lists logP 2.4 and log vapor pressure -0.824 (log10 mmHg). The entry for Cc1ccc(OCCCS(=O)(=O)[O-])c([N+](=O)[O-])c1.[Na+] [Sodium 3-(4-methyl-2-nitrophenoxy)propane-1-sulfonate] lists MP 82 °C and logP -2.57. For CCNc1nc(Cl)nc(N(CC)CC)n1 [Trietazine] the data give log vapor pressure -4.171 (log10 mmHg) and log H -7.038 (log10 atm·m3/mol). Listed for CO[Si](CCCCCC[Si](OC)(OC)OC)(OC)OC [2,11-Dioxa-3,10-disiladodecane, 3,3,10,10-tetramethoxy-]: log S -2.793 (log10 mol/L) and log vapor pressure -3.216 (log10 mmHg). Listed for Nc1cc(Cl)ccc1Oc1ccc(Cl)cc1Cl [5-Chloro-2-(2,4-dichlorophenoxy)aniline]: logP 3.47 and log S -5.045 (log10 mol/L) and log vapor pressure -5.886 (log10 mmHg).

The entry for C=CC(=O)OCCOCC(CC)CCCC (configuration not stated) lists log S -3.074 (log10 mol/L) and log vapor pressure -0.362 (log10 mmHg). The entry for Cc1ccc(N)cc1O [5-Amino-2-methylphenol] lists log S -1.784 (log10 mol/L) and log vapor pressure -5.033 (log10 mmHg). CCc1ccccc1 [Ethylbenzene] is reported with fu 0.1676 and intrinsic clearance 2.004 µL/min/10^6 cells. C=CC(C)(O)CCCC(C)CCCC(C)CCCC(C)C (configuration not stated) [Isophytol] has MP -79 °C and logP 8.8 and log S -4.709 (log10 mol/L). CCCCCCCCCCCC(=O)OCCCCCCCC [Dodecanoic acid, octyl ester] has MP 10.1 °C and log S -8.826 (log10 mol/L).

Listed for Nc1ccc(S(=O)(=O)O)cc1S(=O)(=O)O [1,3-Benzenedisulfonic acid, 4-amino-]: MP 205 °C and logP -0.959 and log S -1.77 (log10 mol/L). For CC1=NN(c2ccccc2)C(=O)C1 [1-Phenyl-3-methyl-5-pyrazolone] the data give logP 1.23 and log vapor pressure -2 (log10 mmHg). The entry for CO/N=C1\COc2ccccc21 [(Z)-Benzofuran-3(2H)-one O-methyl oxime] lists MP 28.1 °C and log S -2.544 (log10 mol/L) and log vapor pressure -1.321 (log10 mmHg). For COc1cc(C=O)ccc1OC(=O)C(C)C [4-Formyl-2-methoxyphenyl isobutyrate] the data give MP 29 °C and log S -2.589 (log10 mol/L) and log vapor pressure -3.764 (log10 mmHg). For CCCCCCCCCC(C)C=O (configuration not stated) [2-Methylundecanal] the data give log S -5.152 (log10 mol/L) and log vapor pressure -1.745 (log10 mmHg).

For CC(NCCCCCCNC(C)C(C)(C)C)C(C)(C)C (configuration not stated) [1,6-Hexanediamine, N1,N6-bis(1,2,2-trimethylpropyl)-] the data give boiling point 321 °C and logP 2.1 and log S -3.518 (log10 mol/L) and log vapor pressure -3.354 (log10 mmHg). For C[C@H](N)C(=O)N[C@@H](CCC(N)=O)C(=O)O [Alanylglutamine] the data give logP -4.57 and log vapor pressure -6.914 (log10 mmHg). For CCc1ccc(-c2ccc(B(O)O)c(F)c2)cc1 [(4'-Ethyl-3-fluoro[1,1'-biphenyl]-4-yl)boronic acid] the data give MP 135.8 °C and logP 4.3 and log S -4.009 (log10 mol/L) and log vapor pressure -12.15 (log10 mmHg). The entry for O=C1C=CC(=O)N1c1ccc(Cc2ccc(N3C(=O)C=CC3=O)cc2)cc1 [Bismaleimide] lists logP 1.91 and log S -5.998 (log10 mol/L) and log vapor pressure -9.046 (log10 mmHg).

Extract of 2 entries:

{"smiles": "CCc1ccccc1", "name": "Ethylbenzene", "fu": "0.1676", "intrinsic clearance (µL/min/10^6 cells)": "2.004"}
{"smiles": "CCCCCCCCCC(C)C=O", "stereo": "configuration not stated", "name": "2-Methylundecanal", "log S (log10 mol/L)": "-5.152", "log vapor pressure (log10 mmHg)": "-1.745"}